# In US20090099157A1, “TETRAHYDRO-PYRAZOLO-PYRIDINE THIOETHER MODULATORS OF CATHEPSIN S” (priority 2007, published 2009):
# Amino acid sequences for entries named in this document (tags omitted). Residues count along the entry.
# UniProt P25774, 115-331: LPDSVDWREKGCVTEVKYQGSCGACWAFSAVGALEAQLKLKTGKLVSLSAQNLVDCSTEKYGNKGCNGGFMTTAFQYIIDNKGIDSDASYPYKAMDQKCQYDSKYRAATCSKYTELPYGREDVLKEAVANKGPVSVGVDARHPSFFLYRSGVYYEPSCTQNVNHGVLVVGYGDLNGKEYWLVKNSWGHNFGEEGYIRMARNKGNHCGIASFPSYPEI
# Target: Recombinant human cathepsin S (CatS) (Homo sapiens, UniProt P25774)
# Assay: biochemical
row,SMILES,IC50 [nM]
1,"CS(=O)(=O)N1CCc2c(c(-c3ccc(C(F)(F)F)c(SCCN4CCCC4)c3)nn2CCCN2CCCCC2)C1 [Example 312, 5-(Methylsulfonyl)-1-(3-piperidin-1-ylpropyl)-3-{3-[(2-pyrrolidin-1-ylethyl)sulfanyl]-4-(trifluoromethyl)phenyl}-4,5,6,7-tetrahydro-1H-pyrazolo[4,3-c]pyridine]",950
2,"CC(C)(O)C1CCN(CC(O)Cn2nc(-c3ccc(C(F)(F)F)c(SCC(=O)N4CCCC4)c3)c3c2CCNC3)CC1 (stereo not shown) [Example 319, 1-[4-(1-Hydroxy-1-methylethyl)piperidin-1-yl]-3-(3-{3-[(2-oxo-2-pyrrolidin-1-ylethyl)sulfanyl]-4-(trifluoromethyl)phenyl}-4,5,6,7-tetrahydro-1H-pyrazolo[4,3-c]pyridin-1-yl)propan-2-ol]",1310
3,"CC(=O)NC1CCN(C[C@H](O)Cn2nc(-c3ccc(C(F)(F)F)c(SCCN4CCCC(F)C4)c3)c3c2CCN(S(C)(=O)=O)C3)CC1 (stereo partly drawn) [Example 655, N-{1-[(2S)-3-{3-[3-{[2-(3-Fluoropiperidin-1-yl)ethyl]sulfanyl}-4-(trifluoromethyl)phenyl]-5-(methylsulfonyl)-4,5,6,7-tetrahydro-1H-pyrazolo[4,3-c]pyridin-1-yl}-2-hydroxypropyl]piperidin-4-yl}acetamide]",80
4,"NC(=O)C(=O)N1CCc2c(c(-c3ccc(C(F)(F)F)c(SCCN4CCCC4)c3)nn2C[C@@H](O)CN2CCCCC2)C1 [Example 317, 2-(1-[(2S)-2-Hydroxy-3-piperidin-1-ylpropyl]-3-{3-[(2-pyrrolidin-1-ylethyl)sulfanyl]-4-(trifluoromethyl)phenyl}-1,4,6,7-tetrahydro-5H-pyrazolo[4,3-c]pyridin-5-yl)-2-oxoacetamide]",160
5,"CS(=O)(=O)N1CCc2c(c(-c3ccc(C(F)(F)F)c(SCCN4CCC(F)CC4)c3)nn2C[C@H](O)CN2CCC(c3c(Cl)cncc3Cl)CC2)C1 [Example 203, (2R)-1-[4-(3,5-Dichloropyridin-4-yl)piperidin-1-yl]-3-{3-[3-{[2-(4-fluoropiperidin-1-yl)ethyl]sulfanyl}-4-(trifluoromethyl)phenyl]-5-(methylsulfonyl)-4,5,6,7-tetrahydro-1H-pyrazolo[4,3-c]pyridin-1-yl}propan-2-ol]",20
6,"N#Cc1ccccc1N1CCN(CC(O)Cn2nc(-c3ccc(C(F)(F)F)c(SCCN4CCC(F)(F)C4)c3)c3c2CCNC3)CC1 (stereo not shown) [Example 560, 2-[4-(3-{3-[3-{[2-(3,3-Difluoropyrrolidin-1-yl)ethyl]sulfanyl}-4-(trifluoromethyl)phenyl]-4,5,6,7-tetrahydro-1H-pyrazolo[4,3-c]pyridin-1-yl}-2-hydroxypropyl)piperazin-1-yl]benzonitrile]",290
7,"CS(=O)(=O)N1CCc2c(c(-c3ccc(C(F)(F)F)c(SCc4ccc(Cl)cc4)c3)nn2CCCN2CCC(N3CCCC3=O)CC2)C1 [Example 134, 1-[1-(3-{3-[3-(4-Chloro-benzylsulfanyl)-4-trifluoromethyl-phenyl]-5-methanesulfonyl-4,5,6,7-tetrahydro-pyrazolo[4,3-c]pyridin-1-yl}-propyl)-piperidin-4-yl]-pyrrolidin-2-one]",130
8,"CS(=O)(=O)N1CCc2c(c(-c3ccc(C(F)(F)F)c(SCCN4CCCC(F)C4)c3)nn2C[C@@H](O)CN2CCCCC2)C1 (stereo partly drawn) [Example 206, (2S)-1-{3-[3-{[2-(3-Fluoropiperidin-1-yl)ethyl]sulfanyl}-4-(trifluoromethyl)phenyl]-5-(methylsulfonyl)-4,5,6,7-tetrahydro-1H-pyrazolo[4,3-c]pyridin-1-yl}-3-piperidin-1-ylpropan-2-ol]",280
9,"CS(=O)(=O)N1CCc2c(c(-c3ccc(C(F)(F)F)c(SCCN4CCC(C(N)=O)CC4)c3)nn2CCCN2CCC(N3CCCC3=O)CC2)C1 [Example 36, 1-{2-[5-(5-Methanesulfonyl-1-{3-[4-(2-oxo-pyrrolidin-1-yl)-piperidin-1-yl]-propyl}-4,5,6,7-tetrahydro-1H-pyrazolo[4,3-c]pyridin-3-yl)-2-trifluoromethyl-phenylsulfanyl]-ethyl}-piperidine-4-carboxylic acid amide]",240
10,"O=C(C1CCN(CC(O)Cn2nc(-c3ccc(C(F)(F)F)c(SCCN4CCC(F)(F)C4)c3)c3c2CCNC3)CC1)N1CCCC1 (stereo not shown) [Example 532, 1-{3-[3-{[2-(3,3-Difluoropyrrolidin-1-yl)ethyl]sulfanyl}-4-(trifluoromethyl)phenyl]-4,5,6,7-tetrahydro-1H-pyrazolo[4,3-c]pyridin-1-yl}-3-[4-(pyrrolidin-1-ylcarbonyl)piperidin-1-yl]propan-2-ol]",1250
11,"OC(CN1CCC(c2ccccc2)CC1)Cn1nc(-c2ccc(C(F)(F)F)c(SCCN3CCC(F)(F)C3)c2)c2c1CCNC2 (stereo not shown) [Example 416, 1-{3-[3-{[2-(3,3-Difluoropyrrolidin-1-yl)ethyl]sulfanyl}-4-(trifluoromethyl)phenyl]-4,5,6,7-tetrahydro-1H-pyrazolo[4,3-c]pyridin-1-yl}-3-(4-phenylpiperidin-1-yl)propan-2-ol]",180
12,"O=C(CSc1cc(-c2nn(CC(O)CN3CCCCC3)c3c2CNCC3)ccc1C(F)(F)F)N1CCOCC1 (stereo not shown) [Example 265, 1-(3-{3-[(2-Morpholin-4-yl-2-oxoethyl)sulfanyl]-4-(trifluoromethyl)phenyl}-4,5,6,7-tetrahydro-1H-pyrazolo[4,3-c]pyridin-1-yl)-3-piperidin-1-ylpropan-2-ol]",4400
13,"CS(=O)(=O)N1CCc2c(c(-c3ccc(C(F)(F)F)c(SCCNCCN4CCOCC4)c3)nn2CCCN2CCC(N3CCCC3=O)CC2)C1 [Example 48, 1-{1-[3-(5-Methanesulfonyl-3-{3-[2-(2-morpholin-4-yl-ethylamino)-ethylsulfanyl]-4-trifluoromethyl-phenyl}-4,5,6,7-tetrahydro-pyrazolo[4,3-c]pyridin-1-yl)-propyl]-piperidin-4-yl}-pyrrolidin-2-one]",960
14,"COC(=O)C(=O)N1CCc2c(c(-c3ccc(C(F)(F)F)c(SCCNC(=O)OCc4ccccc4)c3)nn2CC(O)CN2CCC(c3ccccn3)CC2)C1 (stereo not shown) [Example 871, Methyl {1-[2-hydroxy-3-(4-pyridin-2-ylpiperidin-1-yl)propyl]-3-[3-{[2-({[(phenylmethyl)oxy]carbonyl}amino)ethyl]sulfanyl}-4-(trifluoromethyl)phenyl]-1,4,6,7-tetrahydro-5H-pyrazolo[4,3-c]pyridin-5-yl}(oxo)acetate]",45
15,"CS(=O)(=O)N1CCc2c(c(-c3ccc(C(F)(F)F)c(SCCN4CCC(CO)CC4)c3)nn2CCCN2CCC(N3CCCC3=O)CC2)C1 [Example 21, 1-{1-[3-(3-{3-[2-(4-Hydroxymethyl-piperidin-1-yl)-ethylsulfanyl]-4-trifluoromethyl-phenyl}-5-methanesulfonyl-4,5,6,7-tetrahydro-pyrazolo[4,3-c]pyridin-1-yl)-propyl]-piperidin-4-yl}-pyrrolidin-2-one]",290
16,"NC(=O)C(=O)N1CCc2c(c(-c3ccc(C(F)(F)F)c(SCCN4CCCC4)c3)nn2C[C@@H](O)CN2CCC(N3C[C@H](O)CC3=O)CC2)C1 [Example 663, 2-(1-[(2S)-2-Hydroxy-3-{4-[(4R)-4-hydroxy-2-oxopyrrolidin-1-yl]piperidin-1-yl}propyl]-3-{3-[(2-pyrrolidin-1-ylethyl)sulfanyl]-4-(trifluoromethyl)phenyl}-1,4,6,7-tetrahydro-5H-pyrazolo[4,3-c]pyridin-5-yl)-2-oxoacetamide]",35
17,"COCC(=O)N1CCc2c(c(-c3ccc(C(F)(F)F)c(SCCN4CCCC4)c3)nn2CC(O)CN2CCC(NC(=O)CO)CC2)C1 (stereo not shown) [Example 586, 2-Hydroxy-N-{1-[2-hydroxy-3-(5-[(methyloxy)acetyl]-3-{3-[(2-pyrrolidin-1-ylethyl)sulfanyl]-4-(trifluoromethyl)phenyl}-4,5,6,7-tetrahydro-1H-pyrazolo[4,3-c]pyridin-1-yl)propyl]piperidin-4-yl}acetamide]",490
18,"CC(=O)N1CCc2c(c(-c3ccc(C(F)(F)F)c(SCC(=O)N4CCOCC4)c3)nn2CC(O)CN2CCC(N3CCCC3)CC2)C1 (stereo not shown) [Example 572, 1-(5-Acetyl-3-{3-[(2-morpholin-4-yl-2-oxoethyl)sulfanyl]-4-(trifluoromethyl)phenyl}-4,5,6,7-tetrahydro-1H-pyrazolo[4,3-c]pyridin-1-yl)-3-(4-pyrrolidin-1-ylpiperidin-1-yl)propan-2-ol]",340
19,"CS(=O)(=O)N1CCc2c(c(-c3ccc(C(F)(F)F)c(SCC(=O)NCc4ccccc4)c3)nn2CC(O)CN2CCC(N3CCCC3=O)CC2)C1 (stereo not shown) [Example 73, N-Benzyl-2-[5-(1-{2-hydroxy-3-[4-(2-oxo-pyrrolidin-1-yl)-piperidin-1-yl]-propyl}-5-methanesulfonyl-4,5,6,7-tetrahydro-1H-pyrazolo[4,3-c]pyridin-3-yl)-2-trifluoromethyl-phenylsulfanyl]-acetamide]",1030
20,"OC(CN1CCC(N2CCOCC2)CC1)Cn1nc(-c2ccc(C(F)(F)F)c(SCCN3CCCCC3)c2)c2c1CCNC2 (stereo not shown) [Example 361, 1-(4-Morpholin-4-ylpiperidin-1-yl)-3-(3-{3-[(2-piperidin-1-ylethyl)sulfanyl]-4-(trifluoromethyl)phenyl}-4,5,6,7-tetrahydro-1H-pyrazolo[4,3-c]pyridin-1-yl)propan-2-ol]",7680
21,"CS(=O)(=O)N1CCc2c(c(-c3ccc(C(F)(F)F)c(SCC(=O)NCCc4ccccc4)c3)nn2CC(O)CN2CCC(N3CCCC3=O)CC2)C1 (stereo not shown) [Example 74, 2-[5-(1-{2-Hydroxy-3-[4-(2-oxo-pyrrolidin-1-yl)-piperidin-1-yl]-propyl}-5-methanesulfonyl-4,5,6,7-tetrahydro-1H-pyrazolo[4,3-c]pyridin-3-yl)-2-trifluoromethyl-phenylsulfanyl]-N-phenethyl-acetamide]",2000
22,"CS(=O)(=O)N1CCc2c(c(-c3ccc(C(F)(F)F)c(SCCN4CCC5CCCCC5C4)c3)nn2C[C@@H](O)CN2CCC(N3C[C@@H](O)CC3=O)CC2)C1 (stereo partly drawn) [Example 873, (4S)-4-Hydroxy-1-{1-[(2S)-2-hydroxy-3-{5-(methylsulfonyl)-3-[3-{[2-(octahydroisoquinolin-2(1H)-yl)ethyl]sulfanyl}-4-(trifluoromethyl)phenyl]-4,5,6,7-tetrahydro-1H-pyrazolo[4,3-c]pyridin-1-yl}propyl]piperidin-4-yl}pyrrolidin-2-one]",60
